Laboratory results: patent US6043283A, “Tyramine compounds and their neuronal effects” (priority 1997, dated 2000)

The chains behind the UniProt entries cited, without tags or fusion partners. Where a name states a change or a piece, a line headed by the entry shows the natural chain unless it says otherwise.
UniProt P05067: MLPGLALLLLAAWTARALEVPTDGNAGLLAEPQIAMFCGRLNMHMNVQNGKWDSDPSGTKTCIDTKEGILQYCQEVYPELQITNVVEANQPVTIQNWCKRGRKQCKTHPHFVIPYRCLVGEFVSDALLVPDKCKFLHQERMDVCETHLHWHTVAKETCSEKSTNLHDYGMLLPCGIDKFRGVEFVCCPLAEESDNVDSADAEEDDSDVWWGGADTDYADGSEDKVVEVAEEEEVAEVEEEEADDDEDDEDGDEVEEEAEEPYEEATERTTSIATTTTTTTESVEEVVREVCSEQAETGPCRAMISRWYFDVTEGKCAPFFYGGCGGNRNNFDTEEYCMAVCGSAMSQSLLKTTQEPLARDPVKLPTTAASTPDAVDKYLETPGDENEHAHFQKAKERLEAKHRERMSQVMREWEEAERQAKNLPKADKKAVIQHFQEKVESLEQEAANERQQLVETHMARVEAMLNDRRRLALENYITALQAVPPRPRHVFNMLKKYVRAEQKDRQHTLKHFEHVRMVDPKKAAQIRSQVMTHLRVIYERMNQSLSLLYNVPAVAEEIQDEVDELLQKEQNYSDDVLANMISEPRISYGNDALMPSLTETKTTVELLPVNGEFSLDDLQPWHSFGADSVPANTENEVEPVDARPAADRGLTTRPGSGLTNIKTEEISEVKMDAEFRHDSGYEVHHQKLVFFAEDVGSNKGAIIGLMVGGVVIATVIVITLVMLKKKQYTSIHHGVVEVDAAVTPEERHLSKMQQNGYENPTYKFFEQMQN

Legend:
microglia = experiment: inhibition of SpheresAβ1-42 binding to microglia; set-up: species or system rat; conditions: 10 μmoles/l, 4 hours, 37° C.
Procedure: (§1) FIGS. 15A-D depict inhibition of Aβ binding to microglia. […] Only peptides containing residues 13-16 were able to competitively block sphere binding. […] Spheresmal-BSA (which bind to scavenger receptors) or SpheresAβ1-42 were incubated with microglia for 4 hours following pre-treatment of cells with trypsin (5000 units/ml at 37° C. for 60 min followed by inactivation with soybean trypsin inhibitor), with heparinase (heparin lyase EC 4.2.2.7; two consecutive treatments each of 0.01 units/ml for 60 min), or with chondroitinase ABC (chondroitin ABC lyase EC 4.3.3.4; two consecutive treatments each of 0.02 units/ml for 60 min). […] In contrast, scavenger receptor binding of Spheresmal-BSA was blocked by known scavenger receptor ligands such as dextran sulfate (500 μg/ml) or acetylated LDL (ac-LDL, 200 μg/ml). […] Microglia mixed with hippocampal neurons were treated with combinations of β-D-xyloside (1 mm), heparinase (0.02 units/ml), or chondroitinase (0.04 units/ml) and then exposed to plaques. Enzyme treatments alone, particularly that of heparinase brought on some reduction in neurotoxic activity; however, a combination of both enzymatic degradation of heparin sulfate plus competitive blockade of glycosylation by β-D-xyloside completely eliminated plaque activation.
. Each well then received 250,000 SpheresAβ1-42 or Spheresmal-BSA in the presence or absence of Aβ peptides, GAGs, or scavenger receptor ligands. Binding assays were carried out at 37° C. for 4 hours after which coverslips were dipped 10 times in phosphate buffer and fixed with 4% buffered paraformaldehyde. Microsphere adherence to cells was scored at 200 magnification with phase/fluorescence microscopy. Data, expressed as % inhibition of sphere binding, was calculated from total number of spheres per field noted for control cultures receiving spheres only. Values are based upon at least 3 coverslips from 2 independent experiments. […]; 0.5 ml of a 2.5% suspension) were activated with 1% carbodiimide for 4 hr at room temperature. […]

[1] = system: Aβ1-42-stimulated microglia; conditions: for blocking of Aβ1-42 induced microglial neurotoxicity by peptides: 10 μmoles/liter peptide, 1 μmole/liter Aβ1-42
hippocampal neurons = assay type: cell-based, rat; conditions: absence of microglia
Source text: FIGS. 21A-D display toxic actions of synthetic Aβ peptides upon neurons. […]. There is, however, a generalized cytotoxic action by Aβ25-35 at>30 μmoles/l on both neurons (FIG. 21A) and astroglia (FIG. 21B). In the absence of microglia, none of the Aβ peptides (at 1 μmole/l) produce destruction of neurons. […] These observations point to the need to deplete neuron cultures of microglia when assessing mechanisms of Aβ toxicity. […]; FIG. 21E).
. […]; see FIG. 18). […].

rat microglia = experiment: binding of Aβ-coupled microspheres to microglia; conditions: 4 hours at 37° C. (72 h in FIG. 23)
scavenger receptor = experiment: inhibition of Spheresmal-BSA binding to microglia; set-up: species or system rat; conditions: dextran sulfate 500 μg/ml; ac-LDL 200 μg/ml; Aβ1-16 10 μmole/l
Procedure: as §1, with “Enzyme treatments alone, particularly that of heparinase brought on some reduction in neurotoxic activity; however, a combination of both enzymatic degradation of heparin sulfate plus competitive blockade of glycosylation by β-D-xyloside completely eliminated plaque activation.” left out
. […] Microsphere adherence to cells was scored at 200 magnification with phase/fluorescence microscopy. Data, expressed as % inhibition of sphere binding, was calculated from total number of spheres per field noted for control cultures receiving spheres only. […]

[2] = system: plaque-stimulated microglia; experiment: blocking of plaque-induced microglial neurotoxicity; assay type: cell-based, rat; conditions: FIG. 16C
human microglia = experiment: induction of neuron-killing human microglia; assay type: cell-based; conditions: 1 μmole/liter synthetic peptides
[3] = assay type: physicochemical; conditions: chemically defined culture media, 37° C.; Table 2
Source text: Solubility of peptides is described for chemicallydefined culture media a […]

[4] = system: rat microglia / hippocampal neurons; conditions: mostly 1 μmole/l

| Substance | inhibition of SpheresAβ1-42 binding by peptides (microglia) | blocking of Aβ1-42 induced microglial neurotoxicity by peptides [1] | direct neurotoxicity without microglia (hippocampal neurons) | binding of peptide-coupled microspheres to microglia (rat microglia) | inhibition of Spheresmal-BSA binding by ligands (scavenger receptor) | blocking of plaque-induced microglial toxicity by peptides [2] | pIC50 ([1]; read-out: ED50 (blocking of Aβ1-42 induced neurotoxicity), FIG. 16B) | induction of neurotoxic human microglia (human microglia) | Solubility [3] | induction of neurotoxic microglia / neuron killing [4] |
| --- | --- | --- | --- | --- | --- | --- | --- | --- | --- | --- |
| Aβ10-20: Aβ peptide residues 10-20 (YEVHHQKLVFF; Amyloid-beta protein 42; UniProt P05067 681-691, looked up, fragment) | effectively prevented | blocked neurotoxin production | – | – | – | – | – | – | – | – |
| Aβ1-16: Aβ peptide residues 1-16 (DAEFRHDSGYEVHHQK; Amyloid-beta protein 42; UniProt P05067 672-687, looked up, fragment) | effectively prevented; also recorded: selectively suppressed; also recorded: reduction of binding | blocked neurotoxin production | did not produce neurotoxicity | marked glial binding | did not affect | blocked plaque-induced toxicity in vitro | ~7.52 | – | – | – |
| Aβ12-28: Aβ peptide residues 12-28 | – | – | – | marked glial binding; also recorded: readily bind | – | – | – | inactive | soluble | inactive |
| Aβ1-11: Aβ peptide residues 1-11 (DAEFRHDSGYE; Amyloid-beta protein 42; UniProt P05067 672-682, looked up, fragment) | did not | did not | – | did not | – | – | – | – | – | inactive |

pIC50: −log10 of the molar value. Entries after “also recorded” stand apart in the source; their conditions may differ.
